Data reported in patent US20090075951A1, “Methods and Reagents for the Treatment of Inflammatory Disorders” (CombinatoRx, Inc., priority 2003, published 2009).

Test system: TNFα secretion from LPS stimulated white blood cells from human buffy coat
Assay: TNFα secretion assay, LPS stimulation
Conditions: Prednisolone 0.5 μM, Fluoxetine μM r5-r13: 0,0.23,0.45,0.9,1.8,3.6,7.2,14,29

CNCCC(Oc1ccc(C(F)(F)F)cc1)c1ccccc1 (stereo not shown) [Fluoxetine]
percent inhibition of TNFα secretion: 64.1%
